# Measured affinities in a library of Ab-14 heavy chain variants

Target: peptide PDVDLGDISGINAS, taken from heptad repeat 2 (HR2) of SARS-CoV-2 spike.

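Designed CDR sequences, proposed from the first random library and measured here. Their group label is 14H_En_Gibbs (En: ensemble of fine-tuned language models; Gibbs: Gibbs sampling). Affinity was read by AlphaSeq, a pooled yeast mating assay with surface-displayed partners. Binding brings cells together so that they mate, and sequencing counts the barcode pairs among the diploids. Each replicate has its own calibration line, from reference interactions of the BCL2 family. Each pool was mated in six replicate cultures.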

Parent scFv Ab-14: VH joined to VL by the linker GGGGSGGGGSGGGGS. Changes lie in the heavy chain CDRs alone.
VH: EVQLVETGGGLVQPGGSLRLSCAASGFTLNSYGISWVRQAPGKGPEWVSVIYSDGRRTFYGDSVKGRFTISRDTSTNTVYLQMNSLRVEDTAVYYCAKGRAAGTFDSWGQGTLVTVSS
VL: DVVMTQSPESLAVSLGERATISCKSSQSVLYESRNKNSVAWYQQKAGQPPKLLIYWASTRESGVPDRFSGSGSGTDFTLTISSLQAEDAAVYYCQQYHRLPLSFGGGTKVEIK

Variants are written as CDR1, CDR2 and CDR3 of the heavy chain (limits as in the source). Parent: GFTLNSYGIS, VIYSDGRRTFYGDSVK, GRAAGTFDS. The read-out is the apparent dissociation constant on a log10 scale (nM): the lower, the stronger. Replicates are averaged; those with no signal do not enter the mean. An entry "n.d." has no value in the source: the pair was not observed among the diploids in that replicate. This suggests poor binding but is not conclusive. Of ten entries with the parent sequence, four were seen in most replicates (averages 0.34 to 2.37), three in one and three in none, so single entries are noisy. Empty control strains, which show no peptide, gave a signal in 1% of pairings with all heavy chain designs; the median was 2.08 and 95% of these signals were weaker than 0.84. No background was subtracted. Also given: how often the same scFv was detected with the empty control strains, with their mean in brackets. The authors' rule: three or more of the six replicates give a measured affinity, fewer mean a poor binder. The range of this assay differs from that of the first round, and the authors advise against merging the two.

CDR-H1,CDR-H2,CDR-H3,"replicates, log10 nM","mean, log10 nM",control signals
GFDLDSYGIS,VIYADGRRSAYHDSVK,GQLGGVSFV,n.d. / n.d. / n.d. / n.d. / n.d. / n.d.,n.d.,1/18 (1.35)
GFDLDEYGIS,VIYADGIRSQYHDSVK,GTGGFTIEA,n.d. / n.d. / n.d. / 2.03 / n.d. / n.d.,2.03,0/18
GKNLDEYGVS,VIYADGKRTAYANNFK,GGNAGFFKS,n.d. / n.d. / n.d. / n.d. / n.d. / 1.73,1.73,0/18
GFNINEYGIS,VIYADGLRVAYIDSVK,GNASIFGVD,n.d. / n.d. / n.d. / n.d. / n.d. / n.d.,n.d.,1/18 (2.28)
GFSLDEFGIS,VIYADGQRSAYSHNVK,GQHGGFTVS,n.d. / n.d. / n.d. / n.d. / n.d. / n.d.,n.d.,0/18
GYSLDDYGIS,VIYADGKRKSYAEDVK,GNSGGSFMD,2.90 / n.d. / n.d. / n.d. / n.d. / n.d.,2.90,0/18
GFNLDEYGVS,VIYADGNRNQYTEDVK,GTNGGAVDL,n.d. / n.d. / n.d. / n.d. / n.d. / n.d.,n.d.,0/18
GFELNEFGIS,VIYADGMRASYRNDVK,GEISGDFML,n.d. / n.d. / n.d. / n.d. / n.d. / n.d.,n.d.,0/18
GQQLDEYGIS,VIYADGVRSSYVDSVK,GEITGTFSQ,n.d. / n.d. / n.d. / n.d. / n.d. / n.d.,n.d.,0/18
GFWLDEYGIS,VIYADGKRVAYINSVK,GQFTYFNDV,n.d. / n.d. / n.d. / n.d. / n.d. / n.d.,n.d.,0/18
GMDLNEYGIS,VIYADGLRTAYIDEVK,GKGSVIIGH,n.d. / n.d. / n.d. / n.d. / n.d. / n.d.,n.d.,0/18
GFGLMDYGIS,VIYADGMRRSYANSVK,GHHAGIFDF,n.d. / n.d. / n.d. / n.d. / n.d. / n.d.,n.d.,0/18
GFNLDEYGIS,VIYADGMRTAYKSKVK,GQVWWNLLM,n.d. / n.d. / 1.14 / n.d. / n.d. / n.d.,1.14,0/18
GFDLDEYGIS,VIYADGVRMAYIDSVK,GNWSGRIMY,n.d. / n.d. / n.d. / n.d. / n.d. / n.d.,n.d.,0/18
GFDLEEQGVS,VIYADGKRAQYSDNVK,GYSTGFIDV,n.d. / n.d. / n.d. / n.d. / n.d. / n.d.,n.d.,0/18
GFSLDEMGIS,VIYADGQRTAYQDNVK,GVNGVVVFV,n.d. / n.d. / n.d. / n.d. / n.d. / n.d.,n.d.,0/18
GNDLEEYGIS,VIYADGIRTNYHQNVK,GTLGDTFTQ,n.d. / n.d. / n.d. / n.d. / n.d. / n.d.,n.d.,0/18
GFSLEEYGIS,VIYADGMRTNYAESVK,GNFDLQEGY,n.d. / n.d. / n.d. / n.d. / n.d. / n.d.,n.d.,0/18
GYDINEYGIS,VIYADGQRTSYVQSVK,GAGDITAVV,n.d. / n.d. / n.d. / n.d. / n.d. / n.d.,n.d.,0/18
GFQIDEYGIS,VIYADGMRSAYKNSVK,NGMNVSGIV,n.d. / n.d. / n.d. / n.d. / n.d. / n.d.,n.d.,0/18
GFDVEKYGIS,VIYADGYRSAYTSNVK,GGEAGTFHV,n.d. / n.d. / n.d. / n.d. / n.d. / n.d.,n.d.,1/18 (2.12)
GSDLNEYGIS,VIYADGVRVSYAENFK,GINTGGIAF,n.d. / n.d. / n.d. / n.d. / n.d. / n.d.,n.d.,0/18
GFNLDEYGIS,VIYADGKRTEYSKNVK,GYIDFKLIG,n.d. / n.d. / n.d. / n.d. / n.d. / n.d.,n.d.,0/18
GFSLGEYGIS,VIYADGVRQSYADKVK,GKNGAFSLV,n.d. / n.d. / n.d. / n.d. / n.d. / n.d.,n.d.,0/18
GFDLNEYGIS,VIYADGKRTKYTDNVK,GSLTGTAVT,n.d. / n.d. / n.d. / n.d. / n.d. / n.d.,n.d.,0/18
GFEIDEYGIS,VIYADGIRTSYNDNVK,GQLGTAFDL,n.d. / n.d. / n.d. / n.d. / n.d. / n.d.,n.d.,0/18
GFNLDEYGVS,VIYADGHRTAYVNTVK,GKTGFVLFD,n.d. / n.d. / n.d. / n.d. / n.d. / n.d.,n.d.,0/18
GYSLEEYGIS,VIYADGRRTAYADNVK,GMSGNDGMF,n.d. / n.d. / n.d. / n.d. / n.d. / n.d.,n.d.,1/18 (3.15)
GFDVMEYGIS,VIYADGLRTQYANSVK,GGLRTDFFV,n.d. / n.d. / n.d. / n.d. / n.d. / n.d.,n.d.,1/18 (3.66)
GFVLQEYGIS,VIYADGMRTAYAEDFK,GLTGGNLHI,n.d. / n.d. / n.d. / n.d. / n.d. / n.d.,n.d.,0/18
GKNLDEYGVS,VIYADGKRTQYTNNFK,GTNAGFFMS,n.d. / n.d. / n.d. / n.d. / n.d. / n.d.,n.d.,0/18
GFDLGEFGIS,VIYADGMRTAYSDAVK,GTFSGTVDV,0.11 / 0.42 / -0.28 / 0.12 / -0.02 / 0.69,0.18,0/18
GKDIQEYGIS,VIYADGERVAYTNSVK,GTQSGSNIN,n.d. / n.d. / n.d. / n.d. / n.d. / n.d.,n.d.,0/18
GFSLDEYGIS,VIYADGMRNAYTADVK,GGKSEDFFT,n.d. / n.d. / n.d. / n.d. / n.d. / n.d.,n.d.,0/18
GYDLNEYGIS,VIYADGRRAATINQVK,GSNSFTFDL,n.d. / n.d. / n.d. / n.d. / n.d. / n.d.,n.d.,0/18
GFDLEEFGIS,VIYADGMRTAYSDAVK,GTFSGTVDV,n.d. / n.d. / n.d. / n.d. / n.d. / n.d.,n.d.,0/18
GFDLEQYGIS,VIYADGVRTAYSQNSK,GDDGIAVDI,n.d. / n.d. / n.d. / n.d. / n.d. / n.d.,n.d.,0/18
GFDLNEYGIS,VIYADGLRSAYTDEVK,GKGDVIVFH,n.d. / n.d. / n.d. / n.d. / n.d. / n.d.,n.d.,0/18
GQNLDEYGIS,VIYADGQRTAYDDPVK,GEQGGTVMV,n.d. / n.d. / n.d. / n.d. / n.d. / 3.17,3.17,0/18
GFNINEYGIS,VIYADGQRLSYDDNVK,GEITGTFNS,2.37 / n.d. / n.d. / n.d. / 2.86 / 3.25,2.83,3/18 (3.05)
GQDLAEYGIS,VIYADGKRTYYAQDVK,GTNVGQGGT,n.d. / n.d. / n.d. / n.d. / n.d. / n.d.,n.d.,0/18
GFDLGEYGVS,VIYADGHRAAYTDNVK,GVESGSVQN,n.d. / n.d. / n.d. / n.d. / n.d. / n.d.,n.d.,0/18
GFDIEDYGIS,VIYADGKRSSYSNSFK,GLMSGNIMV,n.d. / n.d. / n.d. / n.d. / n.d. / n.d.,n.d.,0/18
GFDLKEYGIS,VIYADGMRQVYINSFK,GDSGGIINF,n.d. / n.d. / n.d. / n.d. / n.d. / n.d.,n.d.,0/18
GKSLEEYGIS,VIYADGQRNAYAETVK,GTNGGVFSY,1.47 / 2.66 / 1.16 / 0.91 / 1.14 / 0.91,1.38,0/18
GMNLDEYGIS,VIYADGLRYHYANTVK,GEMAGFFMD,n.d. / n.d. / n.d. / n.d. / n.d. / n.d.,n.d.,0/18
GFSLDEMGIS,VIYADGVRTAYVDQVK,GMGGTFMND,n.d. / n.d. / n.d. / n.d. / n.d. / n.d.,n.d.,0/18
GQDLNEYGIS,VIYADGLRTAYTNNVK,GNQSGFDSG,n.d. / n.d. / n.d. / n.d. / n.d. / n.d.,n.d.,0/18
GFDLGEYGIS,VIYADGRRTAYQDSVK,GLNEGMLVV,n.d. / n.d. / n.d. / n.d. / n.d. / n.d.,n.d.,0/18
GFDINEYGIS,VIYADGMRSYYDGKVK,GSNGDLLEV,n.d. / n.d. / n.d. / n.d. / n.d. / n.d.,n.d.,0/18
GFNLDEYGIS,VIYADGMRRAYVDEVK,GSHSDVQNM,n.d. / n.d. / n.d. / n.d. / n.d. / n.d.,n.d.,1/18 (1.85)

For reference, 3 entries of the list once more:

| CDR-H1 | CDR-H2 | CDR-H3 | replicates, log10 nM | mean, log10 nM | control signals |
|---|---|---|---|---|---|
| GFDLEEFGIS | VIYADGMRTAYSDAVK | GTFSGTVDV | n.d. / n.d. / n.d. / n.d. / n.d. / n.d. | n.d. | 0/18 |
| GFSLDEYGIS | VIYADGMRNAYTADVK | GGKSEDFFT | n.d. / n.d. / n.d. / n.d. / n.d. / n.d. | n.d. | 0/18 |
| GFDLGEYGIS | VIYADGRRTAYQDSVK | GLNEGMLVV | n.d. / n.d. / n.d. / n.d. / n.d. / n.d. | n.d. | 0/18 |

Values reported by Li et al. 2023, doi:10.1038/s41467-023-39022-2 (FLAb copy).